# Data: patent US20080200454A1, “CARBON-LINKED TETRAHYDRO-PYRAZOLO-PYRIDINE MODULATORS OF CATHEPSIN S” (priority 2007, published 2008)
# The chains behind the UniProt entries cited, without tags or fusion partners. Residues count along the entry.
# UniProt P25774, 115-331: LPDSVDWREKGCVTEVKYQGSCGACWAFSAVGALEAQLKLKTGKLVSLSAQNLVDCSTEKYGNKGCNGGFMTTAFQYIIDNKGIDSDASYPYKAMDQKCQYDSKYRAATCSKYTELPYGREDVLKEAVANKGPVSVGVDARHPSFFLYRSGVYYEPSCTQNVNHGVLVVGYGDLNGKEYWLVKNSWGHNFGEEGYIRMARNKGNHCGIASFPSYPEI
# Molecular target: Recombinant human cathepsin S (CatS) (Homo sapiens, UniProt P25774)
# Experiment: Recombinant human cathepsin S (CatS) inhibition assay, fluorogenic substrate Z-Valine-Valine-Arginine-AMC;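 further: Baculovirus-expressed CatS in pH 5.0 sodium acetate buffer with DTT and NaCl, fluorescence read each minute over 20 min, inhibition derived from rate slope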
# Settings: read-out: CatS IC50; Table 4; average of results obtained
substance,measurement,value
"3-(4-Chloro-3-{[4-({[(3-fluorophenyl)methyl]amino}methyl)phenyl]ethynyl}phenyl)-1-(3-thiomorpholin-4-ylpropyl)-1,4,6,7-tetrahydro-5H-pyrazolo[4,3-c]pyridine-5-carboxamide [Example 543]",IC50,130 nM
